Tested on: hedgehog signaling pathway
Assay: Hedgehog signaling pathway activation (8X-Gli reporter, Gli 1 and Patched Q-RT-PCR, cyclopamine inhibition)
Type: cell-based
Details: assessed by at least one of Gli reporter, Gli 1/Patched expression
Method: M2-10B4 bone marrow stromal cells were transfected with an 8XGli luciferase reporter or the empty vector (pGL3b). Cells were subsequently treated with control vehicle, 5 μM Oxy49, or 400 ng/ml recombinant human sonic hedgehog (Shh) as positive control. After 48 hours of treatments, reporter luciferase activity was measured and normalized to Renilla luciferase activity (See FIG. 14). […] M2-10B4 bone marrow stromal cells were transfected with an 8XGli luciferase reporter or the empty vector (pGL3b). Cells were subsequently treated with control vehicle, 5 μM Oxy34, or 400 ng/ml recombinant human sonic hedgehog (Shh) as positive control. After 48 hours of treatments, reporter luciferase activity was measured and normalized to Renilla luciferase activity (See FIG. 15). […] After 48 hours of treatments, mRNA was extracted from cells and analyzed by Q-RT-PCR for expression of hedgehog target genes Gli 1 and Patched (See FIGS. 16A and 16B). […] All of the oxysterols presented in FIG. 1 activated the hedgehog signaling pathway as assessed by at least one of the following methodologies: • 1. Luciferase reporter activity using a reporter construct with 8X-Gli binding sites • 2. Q-RT-PCR analysis of the induction of hedgehog pathway target gene expression Gli 1 and Patched • 3.

B1: BMP2: recombinant human BMP2 (R&D Systems) (protein, UniProt P12643 283-396, looked up)
Bone morphogenetic protein 2: QAKHKQRKRLKSSCKRHPLYVDFSDVGWNDWIVAPPGYHAFYCHGECPFPLADHLNSTNHAIVQTLVNSVNSKIPKACCVPTELSAISMLYLDENEKVVLKNYQDMVVEGCGCR
Activation of the hedgehog signaling pathway: no evidence of hedgehog signaling being induced

Reference: patent US9526737B2, “Oxysterols for activation of hedgehog signaling, osteoinduction, antiadipogenesis, and Wnt signaling” (THE REGENTS OF THE UNIVERSITY OF CALIFORNIA, priority 2007, dated 2016)
